# In PubChem BioAssay AID588692 (Broad Institute, 2011):
# Only a part is listed here, and it is no random draw. Activity calls are given as the source filed them.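 How the source made its calls: active means mean luciferase reporter signal, scaled so untreated is 0 and the glycosylation-blocking control 100, at or above a set limit in every replicate; inconclusive means mean reaches the limit but not every replicate does; inactive means mean below the limit.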
# Test: D54 reporter luminescence gain compounds – D54 ERlucT cells, set 2, N-linked glycosylation inhibitor project, primary screen (AID 588692);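 further: luciferase carries N-glycosylation sites so blocking glycosylation raises the light; 0% = median of neutral control wells and 100% = median of 100 nM tunicamycin wells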
# Conditions: D54 ERlucT glycosylation luciferase reporter, 24 h; at 12.5 µM; stronger effect = higher value; percent of 100 nM tunicamycin response
row,Compound,reporter increase
1,CCN(N=Nc1nonc1N)c1nonc1N,inactive: 0.884%
2,Nc1cccc2ccc([As](=O)(O)O)cc12,inactive: 1.36%
3,Cc1ccc(NP(=O)(Oc2ccccc2F)Oc2ccccc2F)nc1,inactive: 1.85%
4,CN(C(=O)Cc1ccc(Cl)c(Cl)c1)[C@H]1CCCC[C@@H]1N1CCCC1,inactive: -2.78%
5,CCOP(=O)(Nc1ccccc1)OCC,inactive: -1.35%
6,Cc1cc(SC(NC(=O)c2ccc(F)cc2)C(Cl)(Cl)Cl)ncn1 (centres undefined),inactive: 0.608%
7,CCCC1OP(N)(=O)OCC1CC (centres undefined),inactive: 0.58%
8,O=C(O)c1ccccc1[As](=O)(O)O,inactive: -0.137%
9,CC(=O)Nc1ccc([As](=O)(O)O)cc1,inactive: 1.84%
10,CN(C)P(=O)(N(C)C)n1c(Nc2ccccc2)nnc1-c1ccccc1,inactive: 2.37%
11,O=P(Nc1nc2ccc(Cl)cc2s1)(c1ccccc1)c1ccccc1,inactive: 1.71%
12,O=[N+]([O-])C1C(O)C(O)C([N+](=O)[O-])C(O)C1O (centres undefined),inactive: 0.224%
13,CC(C)CC(=O)NC(Sc1ccc(Cl)cc1)C(Cl)(Cl)Cl (centres undefined),inactive: -0.923%
14,Nc1cc(N)c2nonc2c1[N+](=O)[O-],inactive: -0.208%
15,O=C(NC(Sc1ccncn1)C(Cl)(Cl)Cl)c1ccccc1 (centres undefined),inactive: 1.7%
16,Oc1ccccc1CNc1ccccn1,inactive: -0.367%
17,Cc1ccc(OP(=O)(Nc2nccs2)Oc2ccc(C)cc2)cc1,inactive: 0.412%
18,COc1ccccc1OP(=O)(Nc1ccc(C)cn1)Oc1ccccc1OC,inactive: -2.26%
19,Clc1ccc(Cl)c(NC2=NCC(CBr)S2)c1 (centres undefined),inactive: 1.48%
20,CN1CCCC(OC(=O)C(c2ccccc2)c2ccccc2)C1 (centres undefined),inactive: -1.15%
21,NC(=O)c1cc([N+](=O)[O-])cc([N+](=O)[O-])c1N,inactive: -0.624%
22,Cc1ccc(N/C(=N/P(=O)(N2CCOCC2)N2CCOCC2)N2CCOCC2)cc1,inactive: 1.48%
23,CN(C(=O)Cc1ccc(Cl)c(Cl)c1)[C@H]1CCCC[C@H]1N1CCCC1,inactive: -0.272%
24,CN(C)C(=O)OCCc1n(C)cc[n+]1C,inactive: 7.35%
25,CC(C)=N/N=C(\N)N[N+](=O)[O-],inactive: 1.31%

row,Compound,reporter increase
1,CC(C)c1nc(Nc2ccccc2)n(P(=O)(N(C)C)N(C)C)n1,inactive: 0.162%
2,c1cc(-c2nn[nH]n2)ccc1-c1nn[nH]n1,inactive: 2.38%
3,CC1CCN(C(=O)Oc2c(Cl)cc(Cl)c3cccnc23)CC1,inactive: 0.945%
4,C[N+]1=C2C=CC=CC=C2SC12C([N+](=O)[O-])=CC([N+](=O)[O-])=C[C-]2[N+](=O)[O-] (centres undefined),inactive: -16%
5,Nc1ccc([As](=O)(O)c2ccc(N)cc2)cc1,inactive: 0.169%
6,CCN(/C(=N/P(=O)(N1CCOCC1)N1CCOCC1)N1CCOCC1)c1ccc(OC)cc1,inactive: 0.793%
7,O=[N+]([O-])c1cccc2n[nH]nc12,inactive: 1.43%
8,CC(=O)N1C2C3N(C(C)=O)C1C1N(C(C)=O)C(C(N1C(C)=O)N3C(C)=O)N2C(C)=O,inactive: 1.8%
9,CCc1nc2c(n1)c1c(non1O)c1c2no[n+]1[O-],inactive: 2.15%
10,O=[N+]([O-])c1cc([N+](=O)[O-])c(CCNc2ccccc2)c([N+](=O)[O-])c1,inactive: 3.4%
11,Cc1ccc(NP(=O)(Oc2ccccc2)Oc2ccccc2)nc1,inactive: -0.527%
12,COc1ccc(C2=NCC(CBr)S2)cc1 (centres undefined),inactive: 2.94%
13,O=[N+]([O-])c1cccc(NC2=NCC(CBr)S2)c1 (centres undefined),inactive: 3.9%
14,COC(=O)C1(C)COP(=O)(Nc2ccccc2)OC1 (centres undefined),inactive: 0.181%
15,O=C(O)CNc1ccc([As](=O)(O)O)cc1,inactive: 2.46%
16,CC(C)(C)C(=O)NC(Sc1ccncn1)C(Cl)(Cl)Cl (centres undefined),inactive: 3.37%
17,O=[N+]([O-])c1ncn(CCn2ncnc2[N+](=O)[O-])n1,inactive: 3.23%
18,O=C(Nc1cc([As](=O)(O)O)ccc1O)c1ccccc1,inactive: 3.02%
19,O=P1(N(CCCl)CCCl)OCCCS1 (centres undefined),inactive: 1.13%
20,Nc1ccc([As](=O)(O)c2ccc([N+](=O)[O-])cc2)cc1,inactive: -0.49%
21,C(Cc1nn[nH]n1)Cc1nn[nH]n1,inactive: 4.63%
22,O=C(OC1CN2CCC1CC2)c1cccc(Cl)c1 (centres undefined),inactive: -1.19%
23,O=[N+]([O-])c1ccc(O)c(/C=N/Nc2ccc([N+](=O)[O-])cc2[N+](=O)[O-])c1,inactive: -12.4%
24,CC(=O)NC(SC(=S)N(C)C)C(Cl)(Cl)Cl (centres undefined),inactive: 7.65%
25,O=[N+]([O-])c1ncn(CCn2cnc([N+](=O)[O-])n2)n1,inactive: 3.02%

row,Compound,reporter increase
1,O=[As](O)(c1ccccc1)c1ccc(O)cc1,inactive: 1.79%
2,C[C@H]1OP(=O)(Oc2ccccc2)[C@H](O)[C@H](O)[C@H]1N=[N+]=[N-] (some centres undefined),inactive: -0.461%
3,O=P(Nc1nc2ccccc2s1)(c1ccccc1)c1ccccc1,inactive: -2.53%
4,Nc1ccc(CCCCOc2ccccc2)cc1,inactive: 0.0225%
5,COc1ccc(N)c([N+](=O)[O-])c1[N+](=O)[O-],inactive: -0.257%
6,O=P(Nc1ccccn1)(c1ccc(Br)cc1)c1ccc(Br)cc1,inactive: -0.374%
7,CN(C)C1(CNC(=O)c2ccc(Cl)c(S(N)(=O)=O)c2)CCCCC1,inactive: 3.15%
8,c1nnnn1CCn1cnnn1,inactive: 0.257%
9,CC(C)C(=O)NC(Sc1ccccc1)C(Cl)(Cl)Cl (centres undefined),inactive: 0.752%
10,O=P(Nc1nccs1)(c1ccccc1)c1ccccc1,inactive: -2.54%
11,CC(=O)Nc1ccc(Oc2c([N+](=O)[O-])cc([N+](=O)[O-])cc2[N+](=O)[O-])cc1,inactive: -1.23%
12,CC(=O)Nc1ccc([As](=O)(O)O)c(O)c1,inactive: 2.58%
13,COC(=O)C1(C)COP(=O)(NCc2ccccc2)OC1 (centres undefined),inactive: 1.68%
14,N#C/C(=C\c1ccc(N(CCBr)CCBr)cc1)C(N)=O,inactive: 0.761%
15,CC(=O)c1ccc(N2CC2c2ccncc2)cc1 (centres undefined),inactive: -0.811%
16,C[C@@H]1C=CCP(=O)(Oc2ccccc2)O1 (some centres undefined),inactive: 4.95%
17,C[C@H]1OP(=O)(Oc2ccccc2)C[C@@H]2O[C@@H]21 (some centres undefined),inactive: 1.59%
18,Cc1ccccc1CN(C)C(=O)COC(=O)C(O)(c1ccccc1)c1ccccc1,inactive: -2.46%
19,CCc1cc(O)c([N+](=O)[O-])c(C)c1[N+](=O)[O-],inactive: 2.7%
20,CC(C)(C)C(=O)NC(Sc1ccccc1)C(Cl)(Cl)Cl (centres undefined),inactive: -2.22%
21,CCOc1ccc(C2=NCC(CBr)S2)cc1 (centres undefined),inactive: 0.845%
22,O=P1(Nc2nc3ccc(Cl)cc3s2)COc2ccccc2O1 (centres undefined),inactive: 0.853%
23,CN(C)C(=O)Oc1noc2ccccc12,inactive: -2.49%
24,O=c1c2cc([N+](=O)[O-])ccc2[nH]c2c([N+](=O)[O-])cc([N+](=O)[O-])cc12,inactive: -12.5%
25,Cc1ccccc1OP(=O)(Nc1ccccn1)Oc1ccccc1C,inactive: -1.57%

row,Compound,reporter increase
1,CC(NC(=O)COC(=O)C(O)(c1ccccc1)c1ccccc1)c1ccccc1 (centres undefined),inactive: 0.609%
2,CC(=O)NC(SC(=S)N(CC(C)C)CC(C)C)C(Cl)(Cl)Cl (centres undefined),inactive: 12.2%
3,Cc1ccc(OP(=O)(Nc2ccccn2)Oc2ccc(C)cc2)cc1,inactive: -1.39%
4,COC(=O)c1cc2c(s1)N=C(c1ccccc1)N(C)P2(=O)N1CCOCC1 (centres undefined),inactive: -1.27%
5,CCC(=O)N1C2C3N(C(=O)CC)C1C1N(C(=O)CC)C(C(N1C(=O)CC)N3C(=O)CC)N2C(=O)CC,inactive: 0.591%
6,O=C(OC1CN2CCC1CC2)c1ccccc1 (centres undefined),inactive: 0.886%
7,O=P1(N(CCCl)CCCl)OCCC2CCCCN21 (centres undefined),inactive: -0.157%
8,CCNC(=S)/N=C(\N)N[N+](=O)[O-],inactive: -0.248%
9,O=C(NC1CCS(=O)(=O)C1)NP(=S)(Oc1ccccc1)Oc1ccccc1 (centres undefined),inactive: -1.75%
10,Cc1ccc(NP(=O)(Oc2cccc(C)c2)Oc2cccc(C)c2)nc1,inactive: -4.02%
11,c1ccc(-c2nn[nH]n2)c(-c2nn[nH]n2)c1,inactive: -1.2%
12,CN(C(=O)Cc1ccc(Cl)c(Cl)c1)[C@H]1CC[C@@]2(CCCO2)C[C@@H]1N1CCCC1,inactive: -1.14%
13,CN(C)C(=O)c1cc([N+](=O)[O-])cc2c1-c1c(cc([N+](=O)[O-])cc1[N+](=O)[O-])C2=O,inactive: -0.174%
14,O=[N+]([O-])c1ccc2c(c1)nnn2O,inactive: -0.56%
15,CCOP1(=S)c2c(C)nn(CCC#N)c2N=C(c2ccc(F)cc2)N1C (centres undefined),inactive: 1.18%
16,CN(C(=O)Cc1ccccc1)[C@@H]1CC[C@]2(CCCO2)C[C@H]1N1CCCC1,inactive: -2.81%
17,N#CCCN(C(=O)COC(=O)C(O)(c1ccccc1)c1ccccc1)c1ccc(F)cc1,inactive: -0.168%
18,NC(=O)Nc1ccc([As](=O)(O)O)cc1,inactive: 1.76%
19,Nc1ccccc1[As](=O)(O)c1ccccc1,inactive: 0.552%
20,O=C(O)COc1ccc([As](=O)(O)O)cc1[N+](=O)[O-],inactive: 3.71%
21,CS(=O)(=O)c1cc([N+](=O)[O-])c2no[n+]([O-])c2c1,inactive: -1.19%
22,O=P(Nc1nccs1)(c1ccccc1)c1nc2ccccc2s1 (centres undefined),inactive: -7.03%
23,O=P(Nc1nccs1)(Oc1ccccc1)Oc1ccccc1,inactive: -2.38%
24,CCOP1(=S)c2c(C)nn(CCC#N)c2N=C(c2ccccc2F)N1C (centres undefined),inactive: 1.7%
